Test results as given in ChEMBL document CHEMBL1641443, “Design, synthesis and biological evaluation of small molecule inhibitors of CD4-gp120 binding based on virtual screening” (Bioorg Med Chem, 2011).
pKd: −log10 of the molar value.

Target: Envelope glycoprotein gp160 (Human immunodeficiency virus type 1 group M subtype B (isolate YU-2)(HIV-1), UniProt P35961)
Experiment: Binding affinity to HIV1 YU2 gp120 by isothermal titration calorimetry assay
Set-up: species or system Human immunodeficiency virus type 1 (isolate YU2)
Procedure, shortened: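 ITC at 25 °C. Cell held gp120 at about 2 μM in PBS pH 7.4 with 2% DMSO. Heat per injection taken from the integrated signal. Kd from a single run unless noted otherwise.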

SMILES	pKd
CC1(C)CC(NC(=O)C(=O)Nc2ccc(Cl)c(F)c2)CC(C)(C)[N+]1(C)[O-] (centres undefined)	5.89
O=C(Nc1ccc(Cl)c(F)c1)C(=O)NC1CCN(C2CCCCC2)C1 (centres undefined)	5.62
CCN1CCC(CNC(=O)C(=O)Nc2ccc(Cl)c(F)c2)CC1	5.47
O=C(NCC1CCN(C2CC2)C1)C(=O)Nc1ccc(Cl)c(F)c1 (centres undefined)	5.77
